Measured values: patent JP2007175055A

What follows are substances tested against OKT4, CD4 V3V4-specific mouse monoclonal antibody (Ortho Diagnostic Systems) (assay: mutant rsCD4 at 1 ug/ml blocking OKT4 binding to CD4+ cells).

Percent block of OKT4 binding to CD4+ cells, 60%:
rsCD4 mouse/human substitution mutant AA220-AA226 (V3) (from UniProt P01730 26-400) (receptor)
rsCD4 mouse/human substitution mutant AA240-AA252 (V3) (from UniProt P01730 26-400) (receptor)
rsCD4 mouse/human substitution mutant AA127-AA134 (V2) (from UniProt P01730 26-400) (receptor)
rsCD4 mouse/human substitution mutant AA121-AA124 (V2) (from UniProt P01730 26-400) (receptor)
